Measurements: PubChem BioAssay AID1745845 (National Center for Advancing Translational Sciences (NCATS), 2022)
The entries are a selection whose mix differs from that of the whole data set. Results filed as inconclusive are left out. Calls of active or inactive are those of the source. Calls follow the shape of the dose curve; as a rule, active = well fitted inhibition curve with a large enough effect; inconclusive = small, poorly fitted or top-dose-only effect; inactive = no such curve, though single readings can be large or run the other way.

Test: Primary qHTS for Inhibitors of ATXN expression; also: nearly all actives have a fitted effect of over 55% in size
Settings: HEK-293 ATXN2-luciferase reporter, luminescence, 24 h
% is scaled to controls: 0 for no effect and ±100 for the full control effect.

Structure (SMILES): CCC(=O)N(c1ccccc1)C1(COC)CCN(CCn2nnn(CC)c2=O)CC1
- activity change, negative = inhibition (at 57 µM (top of the series)): inactive: 4.99%
- activity change, negative = inhibition (at 116 µM (top of the series)): inactive: 32.4%

Structure (SMILES): CCC(=O)N(c1ccccc1)C1(COC)CCN(CCc2cccs2)CC1
- activity change, negative = inhibition (at 57 µM (top of the series)): inactive: -12%
- activity change, negative = inhibition (at 116 µM (top of the series)): inactive: 4.18%
